Laboratory results reported in US20220241376A1, “METHOD FOR DECREASING ADVERSE-EFFECTS OF INTERFERON” (ENYO PHARMA, priority 2019, published 2022).

System: patients chronically infected with HBV
Experiment: 4-week clinical treatment combining weekly sub-cutaneous pegylated IFNα2a (PEG-IFN) with daily oral EYP001a or placebo: treatment emergent adverse events

For “INF: weekly sub-cutaneous injections of pegylated IFNα2a, PEG-IFN”, the “Non-Flu like TEAE (%)” value (Placebo + INF, subjects n = 8, % of total non-flu like TEAE (77) of all arms) was “(22.1%)”, the “patients who developed flu-like adverse events related to IFN (number)” value (overall, all 25 patients (PEG-IFN with EYP001a or placebo), 4-week treatment) was 21 patients and the “patients who developed flu-like adverse events related to IFN (%)” value (overall, of all 25 patients (PEG-IFN with EYP001a or placebo), 4-week treatment) was 84%.
